# Measured affinities in a library of Ab-14 light chain variants

The target is the same throughout: PDVDLGDISGINAS, from the HR2 region of SARS-CoV-2 spike.

Each scFv is VH, the linker GGGGSGGGGSGGGGS, VL, as in the parent Ab-14, and differs from it in the CDRs of the light chain only.
VH: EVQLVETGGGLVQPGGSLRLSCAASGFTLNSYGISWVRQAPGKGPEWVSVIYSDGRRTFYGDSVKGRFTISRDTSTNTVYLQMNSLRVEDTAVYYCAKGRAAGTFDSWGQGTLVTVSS
VL: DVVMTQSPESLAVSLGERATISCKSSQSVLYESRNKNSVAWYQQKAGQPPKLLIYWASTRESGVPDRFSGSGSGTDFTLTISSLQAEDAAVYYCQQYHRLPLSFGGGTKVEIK

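The parent was found by panning a naive human phage display library on the peptide. The variants were designed computationally from a first round of random CDR variants and then made and measured. Group labels follow the data file (Ctrl: baseline library sampled from a position-specific scoring matrix, with some repeated check sequences; Rand: our label for a block that the file lists under HC and that is probably the random mutants of the ten best first-round binders; GP: Gaussian process model; HC: hill climbing; Gen: genetic algorithm; Gibbs: Gibbs sampling; a sequence that several methods proposed may carry one label only). In AlphaSeq, yeast of one mating type display the scFv and yeast of the other type display the target. After mating in shaken culture at 30 °C for 16 h, diploids were selected and their barcode pairs sequenced. The ratio of observed to expected reads was calibrated, replicate by replicate, on BCL2-family standards whose Kd was known from biolayer interferometry. There are six technical replicates.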

Changes read parent residue, position, new residue, counted from the first residue of the VL shown. Variants here have at most six changes. Each Kd is an estimate from the mating assay, the geometric mean of the replicates in which the pair was seen; lower is stronger. Where no diploid with the target was found in any replicate, the entry reads "nd": below detection, most likely a poor binder, though not proof of it. Three control strains display no target. For all light chain designs, 4% of the pairings with them gave a signal, with a median of 430 nM and one signal in twenty below 38 nM, so weak values seen in few replicates may be background. In the paper, a design with two or fewer of six values counts as a poor binder. Values of this round are not directly comparable with the first-round values of the same sequences. Of ten entries with the parent sequence, four were seen in most replicates (averages 2.2 nM to 240 nM), three in one and three in none, so single entries are noisy.

For S25Y S26Y Q27P V29Y S38A W56Q [GP_HC], the assay gave 21 nM (6 of 6 replicates).
For W56A T59I S62I [Ctrl], the assay gave 3.4 nM (6 of 6 replicates).
For S25F S26E V29E W56N [GP_Gen], the assay gave 1.0 nM (6 of 6 replicates).
For S28E V29W W56H S62Q [GP_HC], the assay gave 1.1 nM (6 of 6 replicates).
For Q27I V29H W56E S62Q [GP_HC], the assay gave 22 nM (1 of 6 replicates).
For S25L Q27P V29E L30Q W56H T59L [GP_Gibbs], the assay gave 1.1 nM (6 of 6 replicates).
For Q27D N35G Y97G [Ctrl], the assay gave 180 nM (2 of 6 replicates).
For S25L S38N W56E T59K [GP_Gen], the assay gave 1.7 nM (6 of 6 replicates).
For V29F W56G H98E P101T [Rand], the assay gave nd (0 of 6 replicates).
For S25F W56N S103Q [GP_Gen], the assay gave 600 pM (6 of 6 replicates).
For S26Q S58L S62E [Ctrl], the assay gave 180 nM (1 of 6 replicates).
For V29F W56H A57L R60S P101T [Rand], the assay gave nd (0 of 6 replicates).
For V29N W56R E61N [Ctrl], the assay gave 29 nM (6 of 6 replicates).
For Q27I V29Y W56A T59Q [GP_HC], the assay gave 2.2 nM (6 of 6 replicates).
For K24A S25Q W56G [GP_HC], the assay gave 800 pM (6 of 6 replicates).
For S25L L30D E32Q W56N S58Q E61M [GP_Gibbs], the assay gave 760 pM (6 of 6 replicates).
For S25I L30K R99V S103L [Ctrl], the assay gave 9.9 nM (5 of 6 replicates).
For S25L S26Q V29H L30E W56N [GP_Gen], the assay gave 1.8 nM (6 of 6 replicates).
For V29K Y31G R34L S58G H98S [Ctrl], the assay gave 59 nM (4 of 6 replicates).
For S25Q S28A V29F Y31G W56D S58N [GP_HC], the assay gave 1.2 nM (6 of 6 replicates).
For S25L W56N Q96D [GP_Gen], the assay gave 990 pM (6 of 6 replicates).
For S26Y Q27P W56N S103Q [GP_HC], the assay gave 230 nM (1 of 6 replicates).
For S25L S26H L30G W56G T59Q [GP_Gibbs], the assay gave 870 pM (6 of 6 replicates).
For S25M V39F W56E S103A [Ctrl], the assay gave 1.3 nM (6 of 6 replicates).
For Q27T L30K Y31F W56D [GP_HC], the assay gave 1.8 nM (6 of 6 replicates).
For S25L V29E W56N T59L E61M [GP_Gen], the assay gave 1.9 nM (6 of 6 replicates).
For S25L V29M L30E W56N [GP_Gen], the assay gave 490 pM (6 of 6 replicates).
For V29F K36V S103Y [Ctrl], the assay gave 46 nM (1 of 6 replicates).
For S25L V29H S33E S38N W56S S62W [GP_Gibbs], the assay gave 390 pM (6 of 6 replicates).
For S25L S26Q L30D S38A W56E S62Q [GP_Gibbs], the assay gave 820 pM (6 of 6 replicates).
For V29D R34T E61S [Ctrl], the assay gave 11 nM (6 of 6 replicates).
For S25F S26E S28G W56G T59V [GP_HC], the assay gave 1.5 nM (6 of 6 replicates).
For S25I S28D V29Y L30E W56Q S62V [GP_Gibbs], the assay gave 3.8 nM (6 of 6 replicates).
For S25L L30M W56S [GP_Gen], the assay gave 940 pM (6 of 6 replicates).
For S25V V29Q W56G P101T [GP_HC], the assay gave nd (0 of 6 replicates).
For Q27P V29W W56G S62N [GP_HC], the assay gave 660 pM (6 of 6 replicates).

A selection of 5 entries from above:

changes,group,Kd,detected
S26Q S58L S62E,Ctrl,180 nM,1 of 6
V29N W56R E61N,Ctrl,29 nM,6 of 6
S25L V29M L30E W56N,GP_Gen,490 pM,6 of 6
S25L L30D E32Q W56N S58Q E61M,GP_Gibbs,760 pM,6 of 6
S25F S26E S28G W56G T59V,GP_HC,1.5 nM,6 of 6

Values reported by Li et al. 2023, doi:10.1038/s41467-023-39022-2 (FLAb copy).